{"source": "ChEMBL document CHEMBL1240489", "about": "“Discovery of N-{1-[3-(3-oxo-2,3-dihydrobenzo[1,4]oxazin-4-yl)propyl]piperidin-4-yl}-2-phenylacetamide (Lu AE51090): an allosteric muscarinic M1 receptor agonist with unprecedented selectivity and procognitive potential” (J Med Chem, 2010)", "species": "Homo sapiens", "assay": "Protein binding in human plasma at 0.1 uM after 60 mins by LC/MS-MS analysis", "conditions": "read-out: PPB (converted)"}
{"smiles": "O=C(Cc1ccccc1)NC1CCN(CCCN2C(=O)COc3ccccc32)CC1", "values": [{"measurement": "fraction unbound at 1 h, 0.1 µM", "value": 0.28}]}
